# Results taken from patent publication US20260209220A1, “SUBSTITUTED TETRAHYDROPYRROLO-PYRIDINONE COMPOUNDS AND THEIR USE IN TREATING MEDICAL CONDITIONS” (Karuna Therapeutics, Inc., priority 2022, published 2026).
# The chains behind the UniProt entries cited, without tags or fusion partners.
# UniProt P08485, whole entry: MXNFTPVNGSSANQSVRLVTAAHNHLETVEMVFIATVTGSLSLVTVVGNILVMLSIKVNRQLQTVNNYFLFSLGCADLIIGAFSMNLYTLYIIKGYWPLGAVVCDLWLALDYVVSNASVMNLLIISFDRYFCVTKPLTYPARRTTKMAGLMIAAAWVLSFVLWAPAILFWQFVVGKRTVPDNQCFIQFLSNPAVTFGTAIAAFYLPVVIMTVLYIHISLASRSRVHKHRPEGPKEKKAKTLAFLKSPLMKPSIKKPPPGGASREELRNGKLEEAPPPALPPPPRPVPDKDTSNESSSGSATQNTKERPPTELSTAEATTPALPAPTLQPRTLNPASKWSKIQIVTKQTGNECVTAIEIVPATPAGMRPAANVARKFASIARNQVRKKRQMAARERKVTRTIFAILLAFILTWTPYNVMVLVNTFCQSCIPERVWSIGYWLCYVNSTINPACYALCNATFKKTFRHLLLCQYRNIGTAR
# UniProt P08173, whole entry: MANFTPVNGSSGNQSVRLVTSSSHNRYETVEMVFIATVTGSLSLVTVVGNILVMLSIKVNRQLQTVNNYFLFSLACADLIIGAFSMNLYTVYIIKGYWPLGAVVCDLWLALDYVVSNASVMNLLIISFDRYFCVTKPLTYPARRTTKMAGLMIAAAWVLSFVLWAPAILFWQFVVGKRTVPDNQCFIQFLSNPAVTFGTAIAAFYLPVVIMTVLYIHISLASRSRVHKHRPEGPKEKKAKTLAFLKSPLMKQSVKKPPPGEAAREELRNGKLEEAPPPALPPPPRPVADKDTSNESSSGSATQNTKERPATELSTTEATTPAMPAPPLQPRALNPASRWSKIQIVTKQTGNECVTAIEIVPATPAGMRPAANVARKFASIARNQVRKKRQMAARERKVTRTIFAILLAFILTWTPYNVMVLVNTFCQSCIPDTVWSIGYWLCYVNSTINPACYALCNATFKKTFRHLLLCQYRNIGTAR
# Legend:
# [1] = molecular target: rM4 receptors (Rattus norvegicus, UniProt P08485); experiment: Rat M4 PAM PERK assay (CHO cells, TR-FRET, with EC20 acetylcholine); conditions: read-out: Rat M4 PAM pERK EC50
# Description: (§1) Chinese hamster ovary (CHO) cells expressing either hM4 or rM4 receptors were frozen in assay ready vials (5×10^6 cells/vial) after bulking-up in culture. The day before an assay, vial(s) were thawed and cells seeded in 384 well white proxiplates at 1000/well for hM4 cells and at 2000/well for rM4 cells, in 10 μL of growth media (Hams/F12 with glutamax and 10% FCS) and incubated overnight at 37° C./5% CO2.
# (§2) On the following morning, the growth media was removed by ‘flicking out’ over a bin, patting the inverted plate onto tissue, and then replacing with 10 μL of wash media (Hams/F12 with glutamax and 8 mM HEPES, NB: serum free). Then, the wash media was removed in the same way and replaced with 8 μL/well of the serum free media. Plates were then re-incubated for a further 4 hours at 37° C./5% CO2. […]
# (§3) After the 4-hour incubation in serum free media, a 4 μL aliquot of the 3×compound solution containing an EC20 of acetylcholine (10 nM final concentration) was added to the cell plate using a 384 well plate to plate transfer. […] Then, a final addition of 4 μL/well of antibody detection mix, containing both the Europium-Cryptate (donor) and d2 (acceptor) tagged detection components, was added followed by a further 2-hour incubation at RT, and then the plate was read using a TR-FRET (time resolved fluorescence resonance energy transfer) based protocol.
# [2] = molecular target: human M4 receptor (Homo sapiens, UniProt P08173); experiment: M4 GTPγS PAM assay (CHO-K1 membranes, 35S-GTP binding, with EC20 acetylcholine); conditions: read-out: Human M4 PAM GTPγS EC50, with EC20 acetylcholine (40 nM)
# Description: The M4 GTPγS PAM method was used. Membranes were prepared for GTPgS binding assays from CHO-K1 cells stably expressing human M4 receptor. Briefly, cells were grown in 5-layer cell culture flasks. Cells were washed with 50 mL of PBS and then dissociated with 0.05% trypsin. Dissociated cells were then collected by centrifugation at 650×g for 8 minutes at 4° C. Pellets were washed again in PBS by centrifugation and resuspended in 30 mL of 20 mM HEPES, 10 mM EDTA, pH 7.4. After sitting on ice for 30 min, membranes were collected by centrifugation at 50000×g for 15′ at 4° C., resuspended in 30 mL of 20 mM HEPES, 0.1 mM EDTA, pH 7.4 and collected again by centrifugation. Pellets were then washed twice by centrifugation in 30 mL of 20 mM HEPES, pH 7.4, and stored at −80° C. until the day of the assay. On the day of the assay, pellets were thawed on ice and resuspended in 1 mL of 20 mM HEPES, pH 7.4, 10 mM MgCl2, 100 mM NaCl using dounce homogenization. Membrane protein concentration is determined by BCA protein assay (Promega, Madison, WI) according to Promega guidelines. […]
# Plates were then incubated, with shaking, for an additional 10-15 minutes. […] Plates are top and bottom sealed before being read on TopCount scintillation counter (Perkin Elmer, Waltham, MA).
# [3] = molecular target: hM4 receptors (Homo sapiens, UniProt P08173); experiment: Human M4 PAM PERK assay (CHO cells, TR-FRET, with EC20 acetylcholine); conditions: read-out: Human M4 PAM pERK EC50
# Description: as §1, §2, §3
smiles,measurement,setting,value
Cc1c2c(n(CC3CC3)c(=O)c1Cl)CN(C(=O)CC1CN(c3cncnc3)C1)C2,EC50,[1],50 to 200 nM
same,EC50,[2],50 to 200 nM
same,EC50,[3],< 50 nM
